Earlier results, collected in US9662059B2, “Imaging agents for monitoring changes of dopamine receptors and methods of using thereof” (The Regents of the University of California, priority 2007, dated 2017).

System: D2R
Conditions: Rubi et al., J Biol Chem 2005; cited from earlier work

CCCN1CCC[C@@H]2Cc3n[nH]cc3C[C@H]21 [Quinpirole]
effect on glucose-dependent insulin secretion: inhibited glucose-dependent insulin secretion
